Measurements from US9200046B2, “Reporter system for high throughput screening of compounds and uses thereof” (priority 2011, dated 2015).

Protein sequences, listed by entry. Tags and fused reporters are not part of them.
UniProt Q14145, whole entry: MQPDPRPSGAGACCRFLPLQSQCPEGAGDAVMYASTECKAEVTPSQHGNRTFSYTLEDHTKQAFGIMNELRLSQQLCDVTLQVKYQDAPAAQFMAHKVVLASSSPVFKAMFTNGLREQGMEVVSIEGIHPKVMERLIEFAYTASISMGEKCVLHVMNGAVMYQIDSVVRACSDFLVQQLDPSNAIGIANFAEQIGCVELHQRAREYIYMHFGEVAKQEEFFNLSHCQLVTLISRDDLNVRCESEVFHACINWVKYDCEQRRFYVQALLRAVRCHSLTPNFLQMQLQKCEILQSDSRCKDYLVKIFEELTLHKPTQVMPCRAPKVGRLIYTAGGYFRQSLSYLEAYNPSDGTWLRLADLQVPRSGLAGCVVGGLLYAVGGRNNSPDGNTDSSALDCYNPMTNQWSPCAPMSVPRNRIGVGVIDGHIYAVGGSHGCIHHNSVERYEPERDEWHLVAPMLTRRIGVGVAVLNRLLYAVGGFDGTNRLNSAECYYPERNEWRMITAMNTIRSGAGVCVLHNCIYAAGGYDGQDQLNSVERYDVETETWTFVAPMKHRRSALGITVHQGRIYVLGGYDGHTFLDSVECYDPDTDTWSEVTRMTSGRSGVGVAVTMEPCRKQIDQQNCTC

Target: Nrf2-Keap1 complex (Homo sapiens, UniProt Q14145)

CC1=C(/C=C/C(C)=C/C=C/C(C)=C/C(=O)O)C(C)(C)CCC1 [TRETINON, reference compound]
Activation 100 nL: 71% | Activation 200 nL: 227% | 100 nL (luminescence) (Table 2, 100 nL compound, screen run at 16 and 32 μM, 3 hr): 1816 | 200 nL (luminescence) (Table 2, 200 nL compound, screen run at 16 and 32 μM, 3 hr): 3192
